Assay results from patent publication US8993594B2, “Isoquinolin-1(2H)-one derivatives as PARP-1 inhibitors” (Nerviano Medical Sciences S.R.L., priority 2009, dated 2015).

Amino acid sequences for entries named in this document (tags omitted). A change or cut given only in a name is not applied to a line headed by its entry.
UniProt Q9UGN5: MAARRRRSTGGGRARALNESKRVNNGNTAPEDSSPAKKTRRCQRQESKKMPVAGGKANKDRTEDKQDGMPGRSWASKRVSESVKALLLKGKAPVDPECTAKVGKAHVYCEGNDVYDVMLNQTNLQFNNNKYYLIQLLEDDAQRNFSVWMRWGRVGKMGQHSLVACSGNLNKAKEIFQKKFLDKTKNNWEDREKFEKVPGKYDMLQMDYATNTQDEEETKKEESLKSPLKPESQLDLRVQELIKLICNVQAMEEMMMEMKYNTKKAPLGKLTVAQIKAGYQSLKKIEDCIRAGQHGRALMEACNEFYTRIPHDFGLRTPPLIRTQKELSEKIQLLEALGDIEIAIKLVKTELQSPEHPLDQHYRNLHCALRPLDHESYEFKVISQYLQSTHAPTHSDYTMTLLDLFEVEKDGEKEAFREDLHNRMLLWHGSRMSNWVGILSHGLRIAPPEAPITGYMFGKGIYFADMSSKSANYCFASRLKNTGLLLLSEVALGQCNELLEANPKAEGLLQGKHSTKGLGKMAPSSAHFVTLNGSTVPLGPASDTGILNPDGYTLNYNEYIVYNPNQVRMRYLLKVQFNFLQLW

Target: PARP-2 FL (Homo sapiens, UniProt Q9UGN5)
Experiment: Fluorescence polarization probe displacement assay
Format: binding
Settings: PARP-2 FL 250 nM, probe compound P1 50 nM; average of three experiments; * = assay sensitivity limit

CN(C)CC(=O)Nc1ccc2[nH]c(=O)c3ccccc3c2c1 [PJ34, reference compound]
Kd: < 30 nM
